# AlphaSeq binding of Ab-14 light chain variants to a spike HR2 peptide

Data: MIT Lincoln Laboratory AlphaSeq set, Engelhart et al. 2022, doi:10.1038/s41597-022-01779-4, as distributed in FLAb.

Binding partner: SARS-CoV-2 spike HR2 peptide, sequence PDVDLGDISGINAS.

Each scFv is VH, the linker GGGGSGGGGSGGGGS, VL, as in the parent Ab-14, and differs from it in the CDRs of the light chain only.
VH: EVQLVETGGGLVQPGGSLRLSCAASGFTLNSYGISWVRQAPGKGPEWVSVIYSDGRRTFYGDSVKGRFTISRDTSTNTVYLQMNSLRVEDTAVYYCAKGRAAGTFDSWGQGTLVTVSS
VL: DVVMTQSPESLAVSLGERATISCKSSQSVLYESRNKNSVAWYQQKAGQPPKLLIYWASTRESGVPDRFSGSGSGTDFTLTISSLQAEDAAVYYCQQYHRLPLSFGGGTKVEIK

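Phage display of a naive human antibody library on the peptide gave the parent. Library AAYL50 holds single substitutions and randomly drawn double and triple substitutions in the CDRs. In AlphaSeq, yeast of one mating type display the scFv and yeast of the other type display the target. Pairs that bind mate more often; barcode pairs of the diploids are counted by sequencing. The ratio of observed to expected reads was calibrated, replicate by replicate, on BCL2-family standards whose Kd was known from biolayer interferometry. Mating was done three times.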

Sequences are complete VL domains. Numbers give log10(Kd / nM), so 0 is 1 nM and 3 is 1 µM. Smaller is tighter. "nd" means that the variant was in the library but no mating with the target was seen in that replicate; the authors take this as a sign of poor binding, and no number exists. Empty control strains, which show no peptide, gave a signal in 18% of pairings with library AAYL50; the median was 4.19 and 95% of these signals were weaker than 2.99. No background was subtracted. For each scFv, signals with the empty controls are counted beside the result, with their mean in brackets.

| # | VL | replicates, log10 nM | signal with controls |
|---|---|---|---|
| 1 | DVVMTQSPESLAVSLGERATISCKSSQSVLYFSRNKNSVAWYQQKAGQPPKLLIYLAWTRESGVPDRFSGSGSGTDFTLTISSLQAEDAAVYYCQQYHRLPLSFGGGTKVEIK | nd 3.14 nd | 1 of 9 (3.94) |
| 2 | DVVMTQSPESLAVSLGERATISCKSSQSVLYESRNMNSVAWYQQKAGQPPKLLIYWASTRESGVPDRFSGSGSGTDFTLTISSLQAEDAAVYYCQQYHRLPVSFGGGTKVEIK | 0.74 0.88 0.96 | 2 of 9 (4.38) |
| 3 | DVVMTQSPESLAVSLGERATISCKSSQSVSYISRNKNSVAWYQQKAGQPPKLLIYWASTRESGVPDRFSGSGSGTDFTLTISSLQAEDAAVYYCQAYHRLPLSFGGGTKVEIK | nd nd nd | 0 of 9 |
| 4 | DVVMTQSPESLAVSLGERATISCKSSQNVLYESRFKNSVAWYQQKAGQPPKLLIYWASTRESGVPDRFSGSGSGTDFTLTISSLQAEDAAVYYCQQYHRLPLYFGGGTKVEIK | 1.74 1.78 1.40 | 2 of 9 (3.84) |
| 5 | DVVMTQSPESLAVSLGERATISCISSQSVLYESRNKISVAWYQQKAGQPPKLLIYWASTYESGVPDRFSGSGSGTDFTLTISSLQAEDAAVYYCQQYHRLPLSFGGGTKVEIK | nd nd nd | 1 of 9 (4.65) |
| 6 | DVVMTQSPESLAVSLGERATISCKSSDSVWYESRNKNSVAWYQQKAGQPPKLLIYWASTRESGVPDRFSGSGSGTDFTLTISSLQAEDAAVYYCAQYHRLPLSFGGGTKVEIK | 1.56 1.47 2.04 | 2 of 9 (3.68) |
| 7 | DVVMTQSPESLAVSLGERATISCKSSQLVLYESRNKNSMAWYQQKAGQPPKLLIYWASTTESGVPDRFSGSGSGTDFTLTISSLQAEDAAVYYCQQYHRLPLSFGGGTKVEIK | nd nd nd | 0 of 9 |
| 8 | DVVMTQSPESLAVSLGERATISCRSSQSVLYESRNKNSVAWYQQKAGQPPKLLIYWFSTRESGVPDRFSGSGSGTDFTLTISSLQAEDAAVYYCQQYHRLFLSFGGGTKVEIK | nd nd nd | 0 of 9 |
| 9 | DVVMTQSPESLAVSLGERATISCKSSKSVLYESRNKYSVAWYQQKAGQPPKLLIYWASTREWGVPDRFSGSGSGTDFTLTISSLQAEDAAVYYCQQYHRLPLSFGGGTKVEIK | 1.31 1.33 1.15 | 2 of 9 (3.05) |
| 10 | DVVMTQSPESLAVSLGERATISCQSSQSVLYESRNKNSVAWYQQKAGQPPKLLIYWASTRESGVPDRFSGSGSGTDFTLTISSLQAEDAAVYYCQQYHRKPLSFGGGTKVEIK | nd nd nd | 0 of 9 |
| 11 | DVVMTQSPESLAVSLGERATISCKCSQSVLYESRNKNSVAWYQQKAGQPPKLLIYWASALESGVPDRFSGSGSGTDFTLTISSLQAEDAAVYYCQQYHRLPLSFGGGTKVEIK | 1.27 1.46 1.50 | 1 of 9 (4.02) |
| 12 | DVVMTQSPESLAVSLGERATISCKSDQSVLHESRNRNSVAWYQQKAGQPPKLLIYWASTRESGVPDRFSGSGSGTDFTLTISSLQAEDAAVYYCQQYHRLPLSFGGGTKVEIK | 0.83 0.73 1.07 | 0 of 9 |
| 13 | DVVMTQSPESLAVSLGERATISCKSSQSVLYEAHNKNSVAWYQQKAGQPPKLLIYWASTRESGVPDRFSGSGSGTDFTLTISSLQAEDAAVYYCQRYHRLPLSFGGGTKVEIK | nd nd nd | 1 of 9 (3.30) |
| 14 | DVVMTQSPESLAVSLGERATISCKSSQSVLYEHRNKDSVAWYQQKAGQPPKLLIYWASTRFSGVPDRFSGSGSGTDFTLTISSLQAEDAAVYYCQQYHRLPLSFGGGTKVEIK | 2.71 2.18 2.29 | 1 of 9 (3.41) |
| 15 | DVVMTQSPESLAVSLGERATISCKSSQSVLYECRNKNSRAWYQQKAGQPPKLLIYWASERESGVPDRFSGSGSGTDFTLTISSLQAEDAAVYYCQQYHRLPLSFGGGTKVEIK | nd nd nd | 4 of 9 (4.24) |
| 16 | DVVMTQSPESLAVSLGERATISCKSSISVLYESRNKNSVAWYQQKAGQPPKLLIYWASGRESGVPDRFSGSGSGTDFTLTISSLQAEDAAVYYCQNYHRLPLSFGGGTKVEIK | nd nd nd | 1 of 9 (4.45) |
| 17 | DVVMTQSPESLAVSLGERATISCKSSQSVLYEQRNKNSVAWYQQKAGQPPKLLIYWASTRESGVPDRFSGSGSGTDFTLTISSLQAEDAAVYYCQAYHRLPLSFGGGTKVEIK | 1.24 1.21 1.21 | 1 of 9 (2.20) |
| 18 | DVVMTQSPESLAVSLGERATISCKSSQSVLYESKNKNSVAWYQQKAGQPPKLLIYWASTRESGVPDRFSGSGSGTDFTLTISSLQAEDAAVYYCQQFHRLGLSFGGGTKVEIK | 1.98 2.22 2.67 | 2 of 9 (4.11) |

For reference, 2 entries of the list once more:

{"VL": "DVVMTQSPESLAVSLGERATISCISSQSVLYESRNKISVAWYQQKAGQPPKLLIYWASTYESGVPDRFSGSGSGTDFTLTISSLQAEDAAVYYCQQYHRLPLSFGGGTKVEIK", "replicates, log10 nM": "nd nd nd", "signal with controls": "1 of 9 (4.65)"}
{"VL": "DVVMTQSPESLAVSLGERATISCQSSQSVLYESRNKNSVAWYQQKAGQPPKLLIYWASTRESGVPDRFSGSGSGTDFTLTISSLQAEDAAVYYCQQYHRKPLSFGGGTKVEIK", "replicates, log10 nM": "nd nd nd", "signal with controls": "0 of 9"}